Measurements taken from ChEMBL document CHEMBL5096187, “Efficient Synthesis and Bioevaluation of Novel Dual Tubulin/Histone Deacetylase 3 Inhibitors as Potential Anticancer Agents” (J Med Chem, 2021).

Species on record: Homo sapiens
Assay: Selectivity index, ratio of IC50 for Inhibition of full length N-terminal GST-tagged human recombinant HDAC7 (501 to 952 residues) expressed in Baculovirus system using Ac-Leu-Gly-Lys (Ac)-AMC as substrate to IC50 for inhibition of full length C-terminal his-tagged human recombinant HDAC8 (142 to 143 residues) expressed in baculovirus in Sf9 insect cells using Ac-Leu-Gly-Lys (Tfa)-AMC as substrate

COc1cc(C(=O)c2csc(-c3ccc(NC(=O)/C=C/C(=O)Nc4ccccc4N)cc3)n2)cc(OC)c1OC
Selectivity Index: 54
